The source of these data is patent US20170369807A1, “Ionic Liquid, Lubricant, and Magnetic Recording Medium” (Dexerials Corporation, priority 2016, published 2017).

The nature of the data set: Solubility test to solvents (visual observation). The following applies: ultrasonic waves 5 minutes, left 1 day, visually observed; for Solubility Fluorine-based solvent: Vertrel XF [CF3(CHF)2CF2CF3]; for Solubility Fluorine-based solvent / Solubility n-Hexane: 25° C.
Setting [1] is: listed as Comparative Example 6A.

For the substance “bis(nonafluorobutanesulfonyl)imide-N,N-dimethyl-dodecyl ammonium [Ex. 2A]”, for the setting “listed as Example 2A”, the “Solubility Fluorine-based solvent” value is reported as ≥ 0.2 % by mass, the “Solubility Ethanol” value is given as ≥ 0.5 % by mass and the “Solubility n-Hexane” value is on record as ≥ 0.5 % by mass.

Regarding “nonafluorobutanesulfonic acid-N-methyloctadecyl ammonium [Comp. Ex. 4A]”, the “Solubility Fluorine-based solvent” value is “less than 0.2% by % by mass” and the “Solubility n-Hexane” value is recorded as “less than 0.5% by % by mass”.

Consider “nonafluorobutanesulfonic acid-octadecyl ammonium [Comp. Ex. 1A]”, for which the “Solubility Fluorine-based solvent” value is “less than 0.2% by % by mass” and the “Solubility n-Hexane” value is recorded as “less than 0.5% by % by mass”.

As to “nonafluorobutanesulfonic acid-trimethyloctadecyl ammonium [Comp. Ex. 5A]”, the “Solubility Fluorine-based solvent” value was “less than 0.2% by % by mass” and the “Solubility n-Hexane” value is “less than 0.5% by % by mass”.

For “pentadecafluorooctanoic acid octadecyl ammonium [Comp. Ex. 6A]”, the “Solubility Fluorine-based solvent” value was “less than 0.2% by % by mass”. In addition, under setting [1], the “Solubility Fluorine-based solvent” value was “less than 0.2 % by mass”, the “Solubility Ethanol” value is ≥ 0.5 % by mass and the “Solubility n-Hexane” value is on record as ≥ 0.5 % by mass.
